{"source": "patent US4447437A", "about": "“Pharmaceutical composition and method for treatment of peptic ulcer” (priority 1981, dated 1984)", "assay": "Acute oral toxicity in rats", "details": "rat, in vivo, Wistar rats, female, mortality at 7 days, Litchfield-Wilcoxon method", "data": [{"smiles": "CN1CCC2=C(C1)c1ccccc1Cc1ccccc12", "note": "[MO-8282, 2-N-methyl-1,2,3,4-tetrahydro-9H-dibenzo[a,e]-pyridino[3,4-c]-cycloheptatriene]", "values": [{"measurement": "LD50 at 168 h", "value": 554, "unit": "mg/kg"}]}]}
